These results are taken from ChEMBL document CHEMBL1151474, “Replication of Colonic Crohn's Disease Mucosal Escherichia coli Isolates within Macrophages and Their Susceptibility to Antibiotics” (Antimicrob Agents Chemother, 2008).

Activity calls are given as the source filed them. The rule behind the calls is not given here.

The assay relates to Escherichia coli. Kind of assay: Antibacterial activity against Escherichia coli ATCC 25922 after 24 hrs by Etest antibiotic concentration gradient method. It counts as functional, organism-based.

As for `O=C(O)c1cn(C2CC2)c2cc(N3CCNCC3)c(F)cc2c1=O` [CIPROFLOXACIN], the outcome was Active.
